## Ab-14 light chain CDR variants: yeast mating affinities

Antigen: PDVDLGDISGINAS, a 14-residue peptide of the SARS-CoV-2 spike HR2 region.

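The starting antibody came from a phage panning campaign against this peptide. Variants in AAYL50 differ from the parent at up to three CDR positions; double and triple changes were sampled at random. The scFvs were displayed on barcoded MATa yeast, the peptide on MATalpha yeast. Mating (16 h, 30 °C) was followed by selection of diploids and sequencing of their barcodes. A regression on co-assayed BCL2-family reference pairs converts the normalised counts of each replicate to an apparent Kd. Mating was done three times.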

Each scFv is VH, a 15-residue (Gly4Ser)3 linker, VL, as in the parent Ab-14, and differs from it in the CDRs of the light chain only.
VH: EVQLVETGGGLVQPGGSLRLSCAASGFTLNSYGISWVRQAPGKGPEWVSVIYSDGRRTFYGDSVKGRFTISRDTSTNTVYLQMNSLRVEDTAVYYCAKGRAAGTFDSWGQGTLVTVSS
VL: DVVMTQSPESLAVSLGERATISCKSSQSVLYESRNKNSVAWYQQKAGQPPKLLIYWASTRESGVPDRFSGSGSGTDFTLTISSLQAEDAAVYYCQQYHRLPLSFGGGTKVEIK

Each variant is given by its three light chain CDRs, as the data file delimits them; those of the parent are KSSQSVLYESRNKNSVA, WASTRES, QQYHRLPLS. Numbers give log10(Kd / nM), so 0 is 1 nM and 3 is 1 µM. Smaller is tighter. A mean of the replicates is given; it leaves out those without a signal. An entry "not detected" has no value in the source: the pair was not observed among the diploids in any replicate. This suggests poor binding but is not conclusive. For reference, the parent read 0.65 as the reference entry and 1.68 as a member of this library. Nonspecific signal, from three strains lacking the peptide, appeared in 18% of pairings of library AAYL50, centred on 4.19 (5% of these signals below 2.99); values are not corrected for it.

| CDR-L1 | CDR-L2 | CDR-L3 | mean, log10 nM | detected |
|---|---|---|---|---|
| KSSQSVGYESRNKNSVA | WASDRES | QQIHRLPLS | 3.18 | 3 of 3 |
| KSSQSVLYESRNKESVA | WASTCES | QQYHRFPLS | 3.01 | 1 of 3 |
| KSSQSVLYESRNKNSVY | WASAREC | QQYHRLPLS | 4.16 | 1 of 3 |
| KSSASVLYESNNYNSVA | WASTRES | QQYHRLPLS | not detected | 0 of 3 |
| KSSQSVLEESRNKNSVA | WASTRFS | QQYHRIPLS | 2.82 | 1 of 3 |
| KSSQSVLYESRNKNSVA | WASTFKS | QQYHRLPLS | 4.86 | 3 of 3 |
| KSSQSSLYESRNKNSVA | WASVRES | QQYGRLPLS | 0.81 | 3 of 3 |
| KSSQSVLDYSRNKNSVA | WASTRES | QQYARLPLS | 3.55 | 1 of 3 |
| KSSQSNLYESRNKNSVA | WASTRES | QQIHRLPLS | not detected | 0 of 3 |
| KSKQRVLYESRNKNSVA | WASTRES | QQYNRLPLS | 2.41 | 3 of 3 |
| KSSQSVLYESRNKISVA | WASTRES | QQWHRAPLS | 2.64 | 3 of 3 |
| KSSFSVFYESRNKNSVA | WFSTRES | QQYHRLPLS | not detected | 0 of 3 |
| KWSQSVLYESRCKNSVF | WASTRES | QQYHRLPLS | 2.85 | 1 of 3 |
| KSSQSVLYESRNCNSVG | WASTRES | QQYHRLPLS | not detected | 0 of 3 |
| KSTQSVRYESRNKNSVA | WASTRES | QQYHRSPLS | 1.90 | 3 of 3 |
| KQSQSVLYESRNKNSVA | WASTRES | QQYHRAPLS | 5.89 | 1 of 3 |
| KSSQSVLYESRNLNSVK | WASTREF | QQYHRLPLS | not detected | 0 of 3 |
| KRSQSVLYESRNKFSVA | WASTRES | QQYWRLPLS | 2.92 | 3 of 3 |
| KSSQSVWYESRNKNSVA | WASTRES | WQYHRLPVS | 3.72 | 1 of 3 |
| KSSQSVLYESANKNSVA | WASTRES | QQLHRLPLN | not detected | 0 of 3 |
| KSSQSVLYESRNKNSNA | DRSTRES | QQYHRLPLS | 0.85 | 3 of 3 |
| KSSQSVLYESFNALSVA | WASTRES | QQYHRLPLS | 3.22 | 3 of 3 |
| KSMQSVLYESRNKNSVA | WASTRES | VQYHRLPLS | 1.57 | 3 of 3 |
| KSSQVVLYESRNKNSVA | WYSTAES | QQYHRLPLS | 4.37 | 2 of 3 |
| KSSQSVLYESRNKNSVA | WAKTQES | QQYHSLPLS | not detected | 0 of 3 |
| KSQQSVLYESRNKNSVA | IASTRES | QQYGRLPLS | not detected | 0 of 3 |
| KSSQFVLLESRNKNSVA | WASTREP | QQYHRLPLS | not detected | 0 of 3 |
| KSSHSVLYESSNKNCVA | WASTRES | QQYHRLPLS | 1.59 | 3 of 3 |
| KSSQSVLYESRNKNSVA | WASCRES | CQYHRYPLS | not detected | 0 of 3 |
| CSSQSVLYESRESNSVA | WASTRES | QQYHRLPLS | 2.35 | 3 of 3 |
| KSSQSVGRESRNKNSVA | WASTRES | QQYHREPLS | 1.57 | 3 of 3 |
| KSSNSVLYVSRNKNFVA | WASTRES | QQYHRLPLS | 3.40 | 1 of 3 |

The remaining entries, values ahead:

| mean, log10 nM | detected | CDR-L1 | CDR-L2 | CDR-L3 |
|---|---|---|---|---|
| not detected | 0 of 3 | KSSQSVLQESPNKNSVF | WASTRES | QQYHRLPLS |
| 1.12 | 3 of 3 | KSSQQVLYESGNKNSVA | WASTREF | QQYHRLPLS |
| 2.95 | 3 of 3 | KSSQSVLYFSRNKNSVA | WASTRES | QQYHHYPLS |
| not detected | 0 of 3 | KSSQSVLYLSRNKNSNA | WAHTRES | QQYHRLPLS |
| 4.30 | 1 of 3 | KSSWQVLYESRNKNSVA | WASTRNS | QQYHRLPLS |
| not detected | 0 of 3 | KSSQSVLYESRNKNRIQ | WASTRES | QQYHRLPLS |
| 1.19 | 3 of 3 | KESQSVLYESRNKNSVA | FASTRES | QVYHRLPLS |
| not detected | 0 of 3 | KSSQHVLYESRNKNSVA | WASTRES | QHYHRLPGS |
| 2.67 | 3 of 3 | KSSQSVLYESRNKISVA | WASTRYS | QQYHRLPLS |
| 3.86 | 1 of 3 | KYSMSVLYESRNKNSVA | WASTRES | QQYHDLPLS |
| not detected | 0 of 3 | KSSQSVLYESRNKNSVR | WASTRES | QQYIRHPLS |
| 2.36 | 3 of 3 | KSSQSVLYPSRNKNSVA | WAVTRTS | QQYHRLPLS |
| 3.66 | 3 of 3 | KSSQSVLYESRNKNWVA | WASHRES | QQYHRLNLS |
| 1.97 | 3 of 3 | KSSQSVLWESRNKNSVA | NASTRES | QQYHRLPVS |
| not detected | 0 of 3 | KSSQSVLYESRNKRSVA | WASTREC | QQYHRLPLS |
| 4.22 | 3 of 3 | KSSQKVCYESRNKNSVA | WASTRES | QQYHRLSLS |
| 1.10 | 3 of 3 | KSSFSWLYESRNKNSVA | WADTRES | QQYHRLPLS |
| 4.76 | 1 of 3 | KSSQSVLYEQRNKNSVA | WAVTRES | QGYHRLPLS |
| 2.85 | 2 of 3 | KSSTSVLYESRNKNSVA | WISTRES | QQSHRLPLS |
| 2.95 | 1 of 3 | KSLQSVLIESRNKNSVA | WASTRES | QIYHRLPLS |
| 5.93 | 1 of 3 | KSSQSVLYRSRNKNEVA | WASTRES | QQYHRLPLS |
| 2.31 | 3 of 3 | KSSRSVLYESRNKNSVA | WASCREG | QQYHRLPLS |
| 4.52 | 3 of 3 | KSSQTVLYESRNKNWVA | WASTRES | QQYHRLPLS |
| 1.98 | 3 of 3 | KSSQSVCYESRNKNSVA | WASTRDS | LQYHRLPLS |
| 2.44 | 3 of 3 | KSSQSVLYNSRNKNSVA | WQSTREC | QQYHRLPLS |
| 2.06 | 3 of 3 | KSSQSRLYESRNKNSVA | WASTRES | QQYHCLCLS |
| 2.21 | 3 of 3 | KSSRSVLYESRNKNSVA | WARTRES | FQYHRLPLS |
| 0.54 | 3 of 3 | KSSQSVLYESQNKNSLA | WASTRES | QQYHRLPLS |
| not detected | 0 of 3 | KSSQSVLYESRNKNSHA | WAYTRES | QQIHRLPLS |
| 2.70 | 3 of 3 | KSSQSMIYESRNKNSVA | WASSRES | QQYHRLPLS |
| 4.88 | 1 of 3 | KSSQIVLYESRNKNSVP | WASDRES | QQYHRLPLS |
| 2.01 | 3 of 3 | KSSQSVLYESSNKNSVA | WARTRES | QQYHRIPLS |
| not detected | 0 of 3 | KSSQAVLYESRNKNVVA | PASTRES | QQYHRLPLS |

Picked from the list: the 11 lowest averages where every replicate gave a value.

| CDR-L1 | CDR-L2 | CDR-L3 | mean, log10 nM | detected |
|---|---|---|---|---|
| KSSQSVLYESQNKNSLA | WASTRES | QQYHRLPLS | 0.54 | 3 of 3 |
| KSSQSSLYESRNKNSVA | WASVRES | QQYGRLPLS | 0.81 | 3 of 3 |
| KSSQSVLYESRNKNSNA | DRSTRES | QQYHRLPLS | 0.85 | 3 of 3 |
| KSSFSWLYESRNKNSVA | WADTRES | QQYHRLPLS | 1.10 | 3 of 3 |
| KSSQQVLYESGNKNSVA | WASTREF | QQYHRLPLS | 1.12 | 3 of 3 |
| KESQSVLYESRNKNSVA | FASTRES | QVYHRLPLS | 1.19 | 3 of 3 |
| KSSQSVGRESRNKNSVA | WASTRES | QQYHREPLS | 1.57 | 3 of 3 |
| KSMQSVLYESRNKNSVA | WASTRES | VQYHRLPLS | 1.57 | 3 of 3 |
| KSSHSVLYESSNKNCVA | WASTRES | QQYHRLPLS | 1.59 | 3 of 3 |
| KSTQSVRYESRNKNSVA | WASTRES | QQYHRSPLS | 1.90 | 3 of 3 |
| KSSQSVLWESRNKNSVA | NASTRES | QQYHRLPVS | 1.97 | 3 of 3 |

Values reported by Engelhart et al. 2022, doi:10.1038/s41597-022-01779-4 (FLAb copy).